Antibody variant affinities, Ab-14 light chain, assay 1

The measurements come from Engelhart et al. 2022 (doi:10.1038/s41597-022-01779-4) through the FLAb antibody collection.

Antigen: PDVDLGDISGINAS, a 14-residue peptide of the SARS-CoV-2 spike HR2 region.

Ab-14 is the parent antibody, in scFv form: VH, then a (GGGGS)3 linker, then VL. The heavy chain is unchanged in all variants.
VH: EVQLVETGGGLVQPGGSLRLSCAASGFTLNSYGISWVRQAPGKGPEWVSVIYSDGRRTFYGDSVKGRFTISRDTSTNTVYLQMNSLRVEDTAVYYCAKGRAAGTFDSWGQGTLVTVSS
VL: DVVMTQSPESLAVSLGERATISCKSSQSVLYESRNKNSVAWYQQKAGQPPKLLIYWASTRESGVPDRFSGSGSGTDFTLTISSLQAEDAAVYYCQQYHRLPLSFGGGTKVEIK

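Phage display of a naive human antibody library on the peptide gave the parent. Library AAYL50 holds single substitutions and randomly drawn double and triple substitutions in the CDRs. In AlphaSeq, yeast of one mating type display the scFv and yeast of the other type display the target. After mating in shaken culture at 30 °C for 16 h, diploids were selected and their barcode pairs sequenced. Each replicate has its own calibration line, from reference interactions of the BCL2 family. There are three technical replicates.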

Positions count from residue 1 of the parent VL; Q27N puts N in place of Q.
Kd is apparent (estimated from mating counts) and averaged on the log scale over replicates with a signal. Smaller is tighter.
"not detected" marks a missing value. The strain was present, yet no cells mated with the target were sequenced in any replicate, which points to weak or no binding.

{"changes": "Q27N+L30Y+L100A", "apparent Kd": "not detected", "detected": "0/3", "signal with controls": "2/9"}
{"changes": "S26M+Q27S+L102Y", "apparent Kd": "31 nM", "detected": "3/3", "signal with controls": "0/9"}
{"changes": "K36G+A57P+E61F", "apparent Kd": "25 µM", "detected": "2/3", "signal with controls": "4/9"}
{"changes": "S26E+K36P+L102D", "apparent Kd": "24 nM", "detected": "3/3", "signal with controls": "4/9"}
{"changes": "L30M+E61D+Y97S", "apparent Kd": "32 µM", "detected": "3/3", "signal with controls": "5/9"}
{"changes": "A57K+S58L+S103E", "apparent Kd": "not detected", "detected": "0/3", "signal with controls": "0/9"}
{"changes": "Q27Y+K36V+S58Q", "apparent Kd": "27 nM", "detected": "3/3", "signal with controls": "1/9"}
{"changes": "S38C+W56M+L102P", "apparent Kd": "not detected", "detected": "0/3", "signal with controls": "0/9"}
{"changes": "L30M+N35I+A57P", "apparent Kd": "not detected", "detected": "0/3", "signal with controls": "0/9"}
{"changes": "V39H+R60C+E61Q", "apparent Kd": "19 µM", "detected": "2/3", "signal with controls": "2/9"}
{"changes": "S25N+S26M+R34F", "apparent Kd": "200 nM", "detected": "3/3", "signal with controls": "0/9"}
{"changes": "K24I+N37I+R60Y", "apparent Kd": "not detected", "detected": "0/3", "signal with controls": "1/9"}
{"changes": "V39K+A40L+S58W", "apparent Kd": "not detected", "detected": "0/3", "signal with controls": "0/9"}
{"changes": "Y31T+A40L+L102I", "apparent Kd": "18 µM", "detected": "1/3", "signal with controls": "2/9"}
{"changes": "S38W+W56R+Q95Y", "apparent Kd": "not detected", "detected": "0/3", "signal with controls": "0/9"}
{"changes": "S33Y+W56K", "apparent Kd": "9.1 nM", "detected": "3/3", "signal with controls": "2/9"}
{"changes": "W56Y+A57S+L102M", "apparent Kd": "500 nM", "detected": "3/3", "signal with controls": "1/9"}
{"changes": "L30C+K36S+R99W", "apparent Kd": "190 nM", "detected": "3/3", "signal with controls": "2/9"}
{"changes": "S33R+L102R", "apparent Kd": "not detected", "detected": "0/3", "signal with controls": "0/9"}
{"changes": "Y31D+N37W+S38N", "apparent Kd": "8.3 nM", "detected": "3/3", "signal with controls": "2/9"}
{"changes": "N35R+Q96R+L100M", "apparent Kd": "24 nM", "detected": "3/3", "signal with controls": "0/9"}
{"changes": "E32C+L100S", "apparent Kd": "27 µM", "detected": "2/3", "signal with controls": "5/9"}
{"changes": "L30Q+N37S+R60L", "apparent Kd": "63 nM", "detected": "3/3", "signal with controls": "4/9"}
{"changes": "V39Q+Q96E", "apparent Kd": "920 µM", "detected": "1/3", "signal with controls": "3/9"}
{"changes": "S28Y+S33E+H98E", "apparent Kd": "160 nM", "detected": "3/3", "signal with controls": "4/9"}
{"changes": "K24P+L100T", "apparent Kd": "73 µM", "detected": "1/3", "signal with controls": "3/9"}
{"changes": "S26D+L30Q+E61W", "apparent Kd": "18 nM", "detected": "3/3", "signal with controls": "1/9"}
{"changes": "Q27N+Q96V+Y97R", "apparent Kd": "20 nM", "detected": "3/3", "signal with controls": "4/9"}
{"changes": "R34M+N35C+T59H", "apparent Kd": "6.4 µM", "detected": "2/3", "signal with controls": "2/9"}
{"changes": "L30F+S33A+A57I", "apparent Kd": "16 µM", "detected": "3/3", "signal with controls": "1/9"}
{"changes": "S25A+N35G+S103D", "apparent Kd": "not detected", "detected": "0/3", "signal with controls": "0/9"}

Repeated from above, the 4 best binders with a signal in all replicates:

| changes | apparent Kd | detected | signal with controls |
|---|---|---|---|
| Y31D+N37W+S38N | 8.3 nM | 3/3 | 2/9 |
| S33Y+W56K | 9.1 nM | 3/3 | 2/9 |
| S26D+L30Q+E61W | 18 nM | 3/3 | 1/9 |
| Q27N+Q96V+Y97R | 20 nM | 3/3 | 4/9 |

Background: pairings of library AAYL50 with three empty control strains gave a value in 18% of cases (median 15 µM, 5th percentile 970 nM). Values in that range, when seen in few replicates, are hard to tell from nonspecific mating. For each scFv, signals with the empty controls are counted beside the result.
For reference, the parent read 4.4 nM as the reference entry and 48 nM as a member of this library.